Target: DCN1 (Homo sapiens (Human), UniProt Q96GG9)
Assay: Competitive FP binding assay
Settings: read-out: Binding affinity to DCN1 (IC50 (nM))
Procedure: Competitive FP Binding Assay
The Fluorescence Polarization (FP) competitive binding assays were performed to accurately determine the binding affinities of our DCN1 inhibitors. […] Serial dilutions of proteins were mixed with 46 to a final volume of 200 μl in the assay buffer (100 mM phosphate buffer, pH=6.5, with 0.02% Tween-20 and 2% DMSO). Final probe concentration was 5 nM for both assays. Plates were incubated at room temperature for 30 minutes with gentle shaking to assure equilibrium.
Pure proteins were derived from the same expression and purification protocols. Plasmids were transformed into Rosetta2 cells, the cells were grown in Terrific Broth at 37° C. to an O.D.600>1.0 and induced with 0.4 mM Isopropyl (3-D-1-thiogalactopyranoside overnight at 20° C. The pelleted cells were resuspended in lysis buffer containing 25 mM Tris-HCl, pH 7.5, 200 mM NaCl and protease inhibitors, sonicated and centrifuged at 34,000×g for 45 minutes to remove debris. Cleared lysate was incubated with Ni-NTA resin (Qiagen) prewashed with lysis buffer, for 1 hr at 4° C. The matrix was loaded into a column then washed with 25 mM Tris-HCl, pH 7.5, 200 mM NaCl and 10 mM imidazole. Protein was eluted with 25 mM Tris-HCl, pH 7.5, 200 mM NaCl and 300 mM imidazole, concentrated and applied to a Superdex 75 (GE Healthcare) column pre-equilibrated with 25 mM Tris pH 7.5, 200 mM NaCl and 1 mM DTT. […]

By UniProt entry, the sequences of proteins in these tests, tags left out. Residues count along the entry.
UniProt Q96GG9, 58-259: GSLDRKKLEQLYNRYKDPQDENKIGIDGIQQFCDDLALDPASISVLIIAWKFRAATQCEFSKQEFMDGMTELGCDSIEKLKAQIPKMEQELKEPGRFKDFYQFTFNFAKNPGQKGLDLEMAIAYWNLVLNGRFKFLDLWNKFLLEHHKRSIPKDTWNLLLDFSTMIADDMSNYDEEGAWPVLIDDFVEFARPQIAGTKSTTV

SMILES: CCC(=O)N[C@@H](Cc1nc2ccc(C(C)C)cc2s1)C(=O)N[C@H](CNC(=O)C1CCN(CCOCCOCCOCCNC(=O)CCCC[C@@H]2SC[C@@H]3NC(=O)N[C@@H]32)CC1)C1CCCCC1 [Example 126, N—((S)-2-cyclohexyl-2-((S)-3-(6-isopropylbenzo[d]thiazol-2-yl)-2-propionamidopropanamido)ethyl)-1-(13-oxo-17-((3aS,4S,6aR)-2-oxohexahydro-1H-thieno [3,4-d]imidazol-4-yl)-3,6,9-trioxa-12-azaheptadecyl)piperidine-4-carboxamide]
- IC50: 29.6 nM
